{"source": "patent US6589965B2", "about": "“Method of treating and preventing migraine headaches” (Pharmacia & Upjohn Company, priority 2001, dated 2003)", "tested_on": "quinpirole-induced yawning in rats", "experiment": "antagonism of quinpirole-induced yawning in rats", "set-up": "species or system Male Sprague Dawley Rats", "details": "rat, in vivo", "from_the_text": "Yawning is a behavior that has been linked to activation of dopaminergic neurotransmission. Therefore, the blockage of quinpirole-induced yawning in rats has been used as an animal model to study the potential antagonism of migraine symptoms.\nMale Sprague Dawley Rats were used in this example. The animals were allowed 12 day acclimatization before testing and at the time of the study, their body weights ranged from 280-330 grams. The rats were housed in standard size steel cages with four animals per cage and were maintained on a 12 hour light/dark schedule with the lights being on from 6:00 a.m. to 6:00 p.m. All tests were performed between 8:00 a.m. and 2:00 p.m. Six animals were used per group.\nS-(−)-3-[3-(methylsulfonyl)phenyl]-1-propyl-piperidine in an amount of 10 or 30 mg/kg in a saline vehicle or the vehicle per se was injected 15 minutes before the dopamine D2 agonist quinpirole in an amount of 0.1 mg/kg in a saline vehicle or the saline vehicle per se was administered to the animals. The animals were then placed individually in a 6″×6″plexiglass observation cages and the number of yawns were counted for the subsequent 30 minutes. The results are shown in FIG. 1 with the data being expressed as the mean total number of yawns per 30 minutes. […]", "data": [{"smiles": "CCCN1CCC[C@@H]2Cc3n[nH]cc3C[C@H]21", "note": "[quinpirole]", "values": [{"measurement": "mean total number of yawns per 30 minutes", "value": "13-15 yawns per 30 minutes"}]}]}
